Only a part is listed here, and it is no random draw. Some salts or complexes appear as unconnected parts, following the source record. Calls of active or inactive are those of the source.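 The calls were made as follows: active = activation above the mean of all tested compounds plus 3 SD, cutoff set per screening run (cut at about 20% in these data); inactive = the rest.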
target: Oxytocin receptor (Homo sapiens) (UniProt P30559); assay: human OXTR agonists, primary screen, fluorescence, CHO-OTR cells, Fluo-8 calcium (AID 2435); details: Fluo-8 calcium fluorescence, at 3 µM, active compounds read high, normalized: DMSO 0%, oxytocin 100%;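 also: peak over basal fluorescence ratio from a 100 s FLIPR kinetic read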

By UniProt entry, the sequences of proteins in these tests, tags left out.
UniProt P30559, whole entry: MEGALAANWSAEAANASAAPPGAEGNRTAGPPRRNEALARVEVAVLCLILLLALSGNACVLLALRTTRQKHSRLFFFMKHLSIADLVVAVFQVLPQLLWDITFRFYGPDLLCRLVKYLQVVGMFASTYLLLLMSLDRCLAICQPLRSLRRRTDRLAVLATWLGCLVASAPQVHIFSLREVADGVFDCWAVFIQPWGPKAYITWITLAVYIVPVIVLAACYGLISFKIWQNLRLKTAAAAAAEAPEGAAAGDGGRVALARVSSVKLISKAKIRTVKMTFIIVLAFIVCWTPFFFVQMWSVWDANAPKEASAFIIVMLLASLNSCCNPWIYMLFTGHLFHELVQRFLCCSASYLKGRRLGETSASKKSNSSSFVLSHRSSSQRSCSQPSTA

| Structure (SMILES) | activation |
| --- | --- |
| COc1ccc(OP(C)(=O)Nc2ccc(SC(F)(F)F)cc2)cc1 (stereo unspecified) | inactive: -0.35% |
| CCOC(=O)c1ccc(NP(C)(=O)Oc2ccc(F)cc2)cc1 (stereo unspecified) | inactive: 0.89% |
| CCCCCOc1ccc(NP(C)(=O)Oc2ccc(Cl)cc2Cl)cc1 (stereo unspecified) | inactive: -0.73% |
| O=[N+]([O-])c1cc([N+](=O)[O-])c(OC2CCCCC2O)c([N+](=O)[O-])c1 (stereo unspecified) | inactive: -0.01% |
| CP(=O)(Nc1ccccc1)Oc1ccc(F)cc1 (stereo unspecified) | inactive: -0.53% |
| CCN(CC)CCCOC(=O)C(O)(c1ccccc1)C1CCCCC1 (stereo unspecified) | inactive: 0.3% |
| CC(C)c1ccc(OP(C)(=O)Nc2ccc(SC(F)(F)F)cc2)cc1 (stereo unspecified) | inactive: -0.78% |
| CP(=O)(Nc1ccccc1F)Oc1ccccc1 (stereo unspecified) | inactive: -0.39% |
| COc1ccc2c(c1O)-c1c(O)c(OC)cc3c1[C@H](C2)[N+](C)(C)CC3.O=[N+]([O-])c1cc([N+](=O)[O-])c([O-])c([N+](=O)[O-])c1[O-] | inactive: 0.04% |
| O=C(OCCN1CCN(CCOCc2ccccc2)CC1)C(O)(c1ccccc1)c1ccccc1 | inactive: -0.01% |
| O=C(OC1CN2CCC1CC2)c1ccc([N+](=O)[O-])cc1 (stereo unspecified) | inactive: 0.57% |
| CCOP(C)(=S)SCC(=O)NC(C)(CC)C(=O)O (stereo unspecified) | inactive: 0.38% |
| CP(=O)(Nc1ccc(SC(F)(F)F)cc1)Oc1ccc(F)cc1 (stereo unspecified) | inactive: -0.22% |
| Cc1ccccc1NP(C)(=O)Nc1ccccc1C | inactive: 1.13% |
| CP(=O)(Nc1ccc2c(c1)OCCO2)Oc1ccccc1 (stereo unspecified) | inactive: 1.49% |
| COc1ccc(NP(C)(=O)Oc2ccccc2OC)cc1 (stereo unspecified) | inactive: 0.47% |
| CN(C)CCOC(=O)C(O)(c1ccccc1)C1CCCCC1 (stereo unspecified) | inactive: 2.24% |
| COc1ccc(OP(C)(=O)Nc2cccc(Br)c2)cc1 (stereo unspecified) | inactive: 0.77% |
| O=[N+]([O-])c1cc([N+](=O)[O-])c(NCC2CCS(=O)(=O)C2)c([N+](=O)[O-])c1 (stereo unspecified) | inactive: 0.23% |
| O=[N+]([O-])c1cc([N+](=O)[O-])c(Nc2nnnn2CCO)c([N+](=O)[O-])c1 | inactive: 0.79% |
| CC1=C2N=C(C=C3N=C(C(C)=C4[N-][C@@](C)([C@@H]5N=C1[C@](C)(CCC(=O)NC[C@@H](C)OP(=O)([O-])O[C@H]1[C@@H](O)[C@@H](n6cnc7cc(C)c(C)cc76)O[C@@H]1CO)[C@H]5CC(N)=O)[C@@](C)(CC(N)=O)[C@@H]4CCC(N)=O)[C@@](C)(CC(N)=O)[C@@H]3CCC(N)=O)C(C)(C)[C@@H]2CCC(N)=O.[C-]#N.[Co+3] | inactive: 0.17% |

| Structure (SMILES) | activation |
| --- | --- |
| CCOC(=O)C(CC)C1=NC(C)(C)Cc2ccccc21.O=[N+]([O-])c1cc([N+](=O)[O-])c(O)c([N+](=O)[O-])c1 (stereo unspecified) | inactive: -0.22% |
| CP(=O)(Nc1ccc(SC(F)(F)F)cc1)Oc1ccccc1 (stereo unspecified) | inactive: 3.27% |
| CCCOc1ccc(NP(C)(=O)Oc2ccc(Cl)cc2)cc1 (stereo unspecified) | inactive: -1.76% |
| CN1CCCCC1COC(=O)C1(O)c2ccccc2CCc2ccccc21 (stereo unspecified) | inactive: 1.42% |
| COc1ccccc1OP(C)(=O)Nc1c(C)cccc1C (stereo unspecified) | inactive: 1.53% |
| O=[N+]([O-])c1cc([N+](=O)[O-])c(-n2nnc3ccccc32)c([N+](=O)[O-])c1 | inactive: 0.81% |
| Cc1nc2ccc3ccccc3c2s1.O=[N+]([O-])c1cc([N+](=O)[O-])c(O)c([N+](=O)[O-])c1 | inactive: -1.6% |
| O=[N+]([O-])c1cc([N+](=O)[O-])c(-c2cnn(-c3ccccc3)c2)c([N+](=O)[O-])c1 | inactive: -1.28% |
| Cc1cc(C)cc(OP(C)(=O)Nc2ccc(C)cc2C)c1 (stereo unspecified) | inactive: 0.95% |
| CCOC(=O)c1ccc(NP(C)(=O)Oc2cc(C)cc(C)c2)cc1 (stereo unspecified) | inactive: 5.34% |
| COc1ccccc1OP(C)(=O)Nc1cccc(Br)c1 (stereo unspecified) | inactive: -2.21% |
| CP(=O)(Nc1cccc(Br)c1)Oc1ccccc1 (stereo unspecified) | inactive: -1.17% |
| Cc1cc(C)cc(OP(C)(=O)Nc2ccccn2)c1 (stereo unspecified) | inactive: -1.14% |
| Cc1ccc(C)c(NP(C)(=O)Oc2ccccc2)c1 (stereo unspecified) | inactive: -1.62% |
| O=C(O)c1cccc(Nc2c([N+](=O)[O-])cc([N+](=O)[O-])cc2[N+](=O)[O-])c1 | inactive: -0.16% |
| CC1=NCCc2c1[nH]c1ccccc21.O=[N+]([O-])c1cc([N+](=O)[O-])c(O)c([N+](=O)[O-])c1 | inactive: -0.03% |
| CC(C)(C)c1ccc(OP(C)(=O)Nc2ccc(SC(F)(F)F)cc2)cc1 (stereo unspecified) | inactive: -1.13% |
| Cc1cccc(C)c1OP(C)(N)=O (stereo unspecified) | inactive: 0.74% |
| O=[N+]([O-])c1ccc2c(c1)C=Nc1ccccc1O2 | inactive: -0.41% |
| O=[N+]([O-])c1cc([N+](=O)[O-])c(Nc2cccnc2)c([N+](=O)[O-])c1 | inactive: 14.1% |
| COc1ccccc1OP(C)(=O)Nc1cc(Cl)ccc1C (stereo unspecified) | inactive: 2.51% |

| Structure (SMILES) | activation |
| --- | --- |
| COc1ccc(OP(C)(=O)Nc2cccc(F)c2)cc1 (stereo unspecified) | inactive: 0.09% |
| Cc1cc(C)cc(OP(C)(N)=O)c1 (stereo unspecified) | inactive: 0.85% |
| CCOC(=O)c1ccc(NP(C)(=O)Oc2ccccc2)cc1 (stereo unspecified) | inactive: 0.41% |
| COc1ccccc1OP(C)(=O)Nc1ccc(C)cc1 (stereo unspecified) | inactive: -1.1% |
| Cc1ccc(NP(C)(=O)Oc2ccccc2)c(C)c1 (stereo unspecified) | inactive: -1.35% |
| CCN(CC)CCCOC(=O)C(O)(c1ccccc1)c1ccccc1 | inactive: -0.35% |
| CCc1ccc(OP(C)(=O)N2CCN(c3ccc([N+](=O)[O-])cc3)CC2)cc1 (stereo unspecified) | inactive: 3.56% |
| CP(=O)(NC(=O)Nc1ccccc1)Oc1ccccc1 (stereo unspecified) | inactive: -0.85% |
| Cc1cc(C)cc(OP(C)(=O)Nc2ccc(SC(F)(F)F)cc2)c1 (stereo unspecified) | inactive: -1.14% |
| CP(=O)(Nc1ccc(SC(F)(F)F)cc1)Oc1ccc(Cl)cc1 (stereo unspecified) | inactive: -1.73% |
| Cc1cccc(C)c1OP(C)(=O)Nc1ccc(SC(F)(F)F)cc1 (stereo unspecified) | inactive: 1.98% |
| CP(=O)(Oc1ccccc1)OC(c1ccccc1)C(F)(F)F (stereo unspecified) | inactive: -1.65% |
| CP(=O)(Nc1ccccn1)Oc1ccc(Cl)cc1 (stereo unspecified) | inactive: 2.27% |
| CCOP(C)(=S)SCC(=O)NC(C)C(=O)O (stereo unspecified) | inactive: 0.06% |
| O=[N+]([O-])c1cc([N+](=O)[O-])c(O)c([N+](=O)[O-])c1.c1ccc(Oc2ccncc2)cc1 | inactive: 0.76% |
| CCOC(=O)c1ccc(NP(C)(=O)Oc2ccc(OC)cc2)cc1 (stereo unspecified) | inactive: -0.49% |
| COc1ccccc1OP(C)(=O)Nc1ccccc1 (stereo unspecified) | inactive: -0.86% |
| CP(=O)(Nc1ccccc1Br)Oc1ccccc1 (stereo unspecified) | inactive: -0.21% |
| CP(=S)(Nn1cnnc1)Oc1ccccc1 (stereo unspecified) | inactive: 1.52% |

— PubChem BioAssay AID2435 (The Scripps Research Institute Molecular Screening Center, 2010)
